From US20120121591A1 (priority 2009, published 2012)

By UniProt entry, the sequences of proteins in these tests, tags left out.
UniProt P22001, whole entry: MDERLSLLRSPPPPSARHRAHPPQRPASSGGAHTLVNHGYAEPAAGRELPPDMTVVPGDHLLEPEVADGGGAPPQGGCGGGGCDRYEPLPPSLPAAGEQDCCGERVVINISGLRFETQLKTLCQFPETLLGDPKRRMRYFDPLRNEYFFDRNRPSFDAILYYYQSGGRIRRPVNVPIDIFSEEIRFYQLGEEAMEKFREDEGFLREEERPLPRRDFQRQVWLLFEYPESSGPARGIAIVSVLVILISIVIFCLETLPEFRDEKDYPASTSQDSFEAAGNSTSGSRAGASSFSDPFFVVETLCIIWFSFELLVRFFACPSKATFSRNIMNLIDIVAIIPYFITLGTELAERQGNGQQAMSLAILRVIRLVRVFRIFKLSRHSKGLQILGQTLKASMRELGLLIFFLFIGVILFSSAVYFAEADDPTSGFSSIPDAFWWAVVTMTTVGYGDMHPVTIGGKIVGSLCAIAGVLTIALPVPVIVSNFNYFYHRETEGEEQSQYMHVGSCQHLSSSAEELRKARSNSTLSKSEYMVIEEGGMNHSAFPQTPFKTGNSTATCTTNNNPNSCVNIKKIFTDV

biological target: hKv1.3 (Homo sapiens, UniProt P22001); experiment: cell-based; conditions: Kv1.3 (IWQ) IC50 (nM, Avg)

Compound	IC50 [nM]
CC[C@H](C)[C@@H]1NC(=O)[C@@H](NC(=O)[C@H](CO)NC(=O)[C@@H](N)CCCNC(=N)N)CSSC[C@@H](C(=O)O)NC(=O)[C@H]([C@@H](C)O)NC(=O)CNC(=O)[C@@H]2CSSC[C@@H]3NC(=O)[C@H](CCC(N)=O)NC(=O)[C@H](Cc4ccccc4)NC(=O)[C@H](C)NC(=O)[C@H](Cc4cccc5ccccc45)NC(=O)[C@H](CSSC[C@H](NC(=O)[C@H](Cc4ccccc4)NC(=O)[C@H](CO)NC(=O)[C@H](CC(C)C)NC(=O)[C@H](CCCNC(=N)N)NC(=O)[C@H](Cc4ccc(O)cc4)NC(=O)[C@H](CCCCN)NC(=O)[C@H](CCSC)NC(=O)[C@H](CO)NC(=O)[C@H](Cc4cnc[nH]4)NC(=O)[C@H](CCCCN)NC3=O)C(=O)N[C@@H](CCCNC(=N)N)C(=O)N[C@@H](CCCCN)C(=O)N[C@@H]([C@@H](C)O)C(=O)N2)NC(=O)[C@H](CCCNC(=N)N)NC(=O)[C@H](CO)NC(=O)[C@H](CCCCN)NC(=O)[C@@H]2CCCN2C(=O)[C@H]([C@@H](C)CC)NC(=O)[C@H]([C@@H](C)O)NC(=O)[C@H](CC(=O)O)NC1=O [[1-Nal13]ShK]	0.235
CC[C@H](C)[C@@H]1NC(=O)[C@@H](NC(=O)[C@H](CO)NC(=O)[C@@H](N)CCCNC(=N)N)CSSC[C@@H](C(=O)O)NC(=O)[C@H]([C@@H](C)O)NC(=O)CNC(=O)[C@@H]2CSSC[C@@H]3NC(=O)[C@H](CCC(N)=O)NC(=O)[C@H](Cc4ccccc4)NC(=O)[C@H](C)NC(=O)[C@H]([C@@H](C)O)NC(=O)[C@H](CSSC[C@H](NC(=O)[C@H](Cc4ccccc4)NC(=O)[C@H](CO)NC(=O)[C@H](CC(C)C)NC(=O)[C@H](CCCNC(=N)N)NC(=O)[C@H](Cc4ccc(O)cc4)NC(=O)[C@H](CCCCN)NC(=O)[C@H](CCSC)NC(=O)[C@H](CO)NC(=O)[C@H](Cc4cnc[nH]4)NC(=O)[C@H](CCCCN)NC3=O)C(=O)N[C@@H](CCCNC(=N)N)C(=O)N[C@@H](CCCCN)C(=O)N[C@@H]([C@@H](C)O)C(=O)N2)NC(=O)[C@H](C)NC(=O)[C@H](CO)NC(=O)[C@H](CCCCN)NC(=O)[C@@H]2CCCN2C(=O)[C@H]([C@@H](C)CC)NC(=O)[C@H]([C@@H](C)O)NC(=O)[C@H](CC(=O)O)NC1=O [[Ala11]ShK]	0.431
CC[C@H](C)[C@@H]1NC(=O)[C@@H](NC(=O)[C@H](CO)NC(=O)[C@@H](N)CCCNC(=N)N)CSSC[C@@H](C(=O)O)NC(=O)[C@H]([C@@H](C)O)NC(=O)CNC(=O)[C@@H]2CSSC[C@@H]3NC(=O)[C@H](CCC(N)=O)NC(=O)[C@H](Cc4ccccc4)NC(=O)[C@H](C)NC(=O)[C@H](C)NC(=O)[C@H](CSSC[C@H](NC(=O)[C@H](Cc4ccccc4)NC(=O)[C@H](CO)NC(=O)[C@H](CC(C)C)NC(=O)[C@H](CCCNC(=N)N)NC(=O)[C@H](Cc4ccc(O)cc4)NC(=O)[C@H](CCCCN)NC(=O)[C@H](CCSC)NC(=O)[C@H](CO)NC(=O)[C@H](Cc4cnc[nH]4)NC(=O)[C@H](CCCCN)NC3=O)C(=O)N[C@@H](CCCNC(=N)N)C(=O)N[C@@H](CCCCN)C(=O)N[C@@H]([C@@H](C)O)C(=O)N2)NC(=O)[C@H](CCCNC(=N)N)NC(=O)[C@H](CO)NC(=O)[C@H](CCCCN)NC(=O)[C@@H]2CCCN2C(=O)[C@H]([C@@H](C)CC)NC(=O)[C@H]([C@@H](C)O)NC(=O)[C@H](CC(=O)O)NC1=O [[Ala13]ShK]	0.156
CC[C@H](C)[C@@H]1NC(=O)[C@@H](NC(=O)[C@H](CO)NC(=O)[C@@H](N)CCCNC(=N)N)CSSC[C@@H](C(=O)O)NC(=O)[C@H]([C@@H](C)O)NC(=O)CNC(=O)[C@@H]2CSSC[C@@H]3NC(=O)[C@H](C)NC(=O)[C@H](Cc4ccccc4)NC(=O)[C@H](C)NC(=O)[C@H]([C@@H](C)O)NC(=O)[C@H](CSSC[C@H](NC(=O)[C@H](Cc4ccccc4)NC(=O)[C@H](CO)NC(=O)[C@H](CC(C)C)NC(=O)[C@H](CCCNC(=N)N)NC(=O)[C@H](Cc4ccc(O)cc4)NC(=O)[C@H](CCCCN)NC(=O)[C@H](CCSC)NC(=O)[C@H](CO)NC(=O)[C@H](Cc4cnc[nH]4)NC(=O)[C@H](CCCCN)NC3=O)C(=O)N[C@@H](CCCNC(=N)N)C(=O)N[C@@H](CCCCN)C(=O)N[C@@H]([C@@H](C)O)C(=O)N2)NC(=O)[C@H](CCCNC(=N)N)NC(=O)[C@H](CO)NC(=O)[C@H](CCCCN)NC(=O)[C@@H]2CCCN2C(=O)[C@H]([C@@H](C)CC)NC(=O)[C@H]([C@@H](C)O)NC(=O)[C@H](CC(=O)O)NC1=O [[Ala16]ShK]	0.196
CC[C@H](C)[C@@H]1NC(=O)[C@@H](NC(=O)[C@H](CO)NC(=O)[C@@H](N)CCCNC(=N)N)CSSC[C@@H](C(=O)O)NC(=O)[C@H]([C@@H](C)O)NC(=O)CNC(=O)[C@@H]2CSSC[C@@H]3NC(=O)[C@H](CCC(N)=O)NC(=O)[C@H](Cc4ccccc4)NC(=O)[C@H](C)NC(=O)[C@H]([C@@H](C)O)NC(=O)[C@H](CSSC[C@H](NC(=O)[C@H](Cc4ccccc4)NC(=O)[C@H](CO)NC(=O)[C@H](CC(C)C)NC(=O)[C@H](CCCNC(=N)N)NC(=O)[C@H](Cc4ccc(O)cc4)NC(=O)[C@H](CCCCN)NC(=O)[C@H](CCSC)NC(=O)[C@H](C)NC(=O)[C@H](Cc4cnc[nH]4)NC(=O)[C@H](CCCCN)NC3=O)C(=O)N[C@@H](CCCNC(=N)N)C(=O)N[C@@H](CCCCN)C(=O)N[C@@H]([C@@H](C)O)C(=O)N2)NC(=O)[C@H](CCCNC(=N)N)NC(=O)[C@H](CO)NC(=O)[C@H](CCCCN)NC(=O)[C@@H]2CCCN2C(=O)[C@H]([C@@H](C)CC)NC(=O)[C@H]([C@@H](C)O)NC(=O)[C@H](CC(=O)O)NC1=O [[Ala20]ShK]	0.195
CC[C@H](C)[C@@H]1NC(=O)[C@@H](NC(=O)[C@H](CO)NC(=O)[C@@H](N)CCCNC(=N)N)CSSC[C@@H](C(=O)O)NC(=O)[C@H]([C@@H](C)O)NC(=O)CNC(=O)[C@@H]2CSSC[C@@H]3NC(=O)[C@H](CCC(N)=O)NC(=O)[C@H](Cc4ccccc4)NC(=O)[C@H](C)NC(=O)[C@H]([C@@H](C)O)NC(=O)[C@H](CSSC[C@H](NC(=O)[C@H](Cc4ccccc4)NC(=O)[C@H](CO)NC(=O)[C@H](CC(C)C)NC(=O)[C@H](CCCNC(=N)N)NC(=O)[C@H](Cc4ccc(O)cc4)NC(=O)[C@H](CCCCN)NC(=O)[C@H](CCSC)NC(=O)[C@H](CO)NC(=O)[C@H](CCC(=O)O)NC(=O)[C@H](CCCCN)NC3=O)C(=O)N[C@@H](CCCNC(=N)N)C(=O)N[C@@H](CCCCN)C(=O)N[C@@H]([C@@H](C)O)C(=O)N2)NC(=O)[C@H](CCCNC(=N)N)NC(=O)[C@H](CO)NC(=O)[C@H](CCCCN)NC(=O)[C@@H]2CCCN2C(=O)[C@H]([C@@H](C)CC)NC(=O)[C@H]([C@@H](C)O)NC(=O)[C@H](CC(=O)O)NC1=O [[Glu19]ShK]	0.256
CC[C@H](C)[C@@H]1NC(=O)[C@@H](NC(=O)[C@H](CO)NC(=O)[C@@H](N)CCCNC(=N)N)CSSC[C@@H](C(=O)O)NC(=O)[C@H]([C@@H](C)O)NC(=O)[C@H](CCC(=O)O)NC(=O)[C@@H]2CSSC[C@@H]3NC(=O)[C@H](CCC(N)=O)NC(=O)[C@H](Cc4ccccc4)NC(=O)[C@H](C)NC(=O)[C@H]([C@@H](C)O)NC(=O)[C@H](CSSC[C@H](NC(=O)[C@H](Cc4ccccc4)NC(=O)[C@H](CO)NC(=O)[C@H](CC(C)C)NC(=O)[C@H](CCCNC(=N)N)NC(=O)[C@H](Cc4ccc(O)cc4)NC(=O)[C@H](CCCCN)NC(=O)[C@H](CCSC)NC(=O)[C@H](CO)NC(=O)[C@H](Cc4cnc[nH]4)NC(=O)[C@H](CCCCN)NC3=O)C(=O)N[C@@H](CCCNC(=N)N)C(=O)N[C@@H](CCCCN)C(=O)N[C@@H]([C@@H](C)O)C(=O)N2)NC(=O)[C@H](CCCNC(=N)N)NC(=O)[C@H](CO)NC(=O)[C@H](CCCCN)NC(=O)[C@@H]2CCCN2C(=O)[C@H]([C@@H](C)CC)NC(=O)[C@H]([C@@H](C)O)NC(=O)[C@H](CC(=O)O)NC1=O [[Glu33]ShK]	0.06
CC[C@H](C)[C@@H]1NC(=O)[C@H]([C@@H](C)O)NC(=O)[C@H](CC(=O)O)NC(=O)[C@H](CCCCN)NC(=O)[C@@H](NC(=O)[C@H](CO)NC(=O)[C@@H](N)CCCNC(=N)N)CSSC[C@@H](C(=O)O)NC(=O)[C@H]([C@@H](C)O)NC(=O)CNC(=O)[C@@H]2CSSC[C@@H]3NC(=O)[C@H](CCC(N)=O)NC(=O)[C@H](Cc4ccccc4)NC(=O)[C@H](C)NC(=O)[C@H]([C@@H](C)O)NC(=O)[C@H](CSSC[C@H](NC(=O)[C@H](Cc4ccccc4)NC(=O)[C@H](CO)NC(=O)[C@H](CC(C)C)NC(=O)[C@H](CCCNC(=N)N)NC(=O)[C@H](Cc4ccc(O)cc4)NC(=O)[C@H](CCCCN)NC(=O)[C@H](CCSC)NC(=O)[C@H](CO)NC(=O)[C@H](Cc4cnc[nH]4)NC(=O)[C@H](CCCCN)NC3=O)C(=O)N[C@@H](CCCNC(=N)N)C(=O)N[C@@H](CCCCN)C(=O)N[C@@H]([C@@H](C)O)C(=O)N2)NC(=O)[C@H](CCCNC(=N)N)NC(=O)[C@H](CO)NC(=O)[C@H](CCCCN)NC(=O)[C@@H]2CCCN2C1=O [[Lys4]ShK]	0.153
CC[C@H](C)[C@@H]1NC(=O)[C@@H](NC(=O)[C@H](CO)NC(=O)[C@@H](N)CCCNC(=N)N)CSSC[C@@H](C(=O)O)NC(=O)[C@H]([C@@H](C)O)NC(=O)CNC(=O)[C@@H]2CSSC[C@@H]3NC(=O)[C@H](CCC(N)=O)NC(=O)[C@H](Cc4ccccc4)NC(=O)[C@H](C)NC(=O)[C@H]([C@@H](C)O)NC(=O)[C@H](CSSC[C@H](NC(=O)[C@H](Cc4ccccc4)NC(=O)[C@H](CO)NC(=O)[C@H](CC(C)C)NC(=O)[C@H](CCCCN)NC(=O)[C@H](Cc4ccc(O)cc4)NC(=O)[C@H](CCCCN)NC(=O)[C@H](CCSC)NC(=O)[C@H](CO)NC(=O)[C@H](Cc4cnc[nH]4)NC(=O)[C@H](CCCCN)NC3=O)C(=O)N[C@@H](CCCNC(=N)N)C(=O)N[C@@H](CCCCN)C(=O)N[C@@H]([C@@H](C)O)C(=O)N2)NC(=O)[C@H](CCCNC(=N)N)NC(=O)[C@H](CO)NC(=O)[C@H](CCCCN)NC(=O)[C@@H]2CCCN2C(=O)[C@H]([C@@H](C)CC)NC(=O)[C@H]([C@@H](C)O)NC(=O)[C@H](CC(=O)O)NC1=O [[Lys24]ShK]	0.067
